Binding of CDR-mutated scFvs to a peptide of the spike HR2 region

Values reported by Li et al. 2023, doi:10.1038/s41467-023-39022-2 (FLAb copy).

The target is the same throughout: PDVDLGDISGINAS, from the HR2 region of SARS-CoV-2 spike.

Ab-14 is the parent antibody, in scFv form: VH, then a 15-residue (Gly4Ser)3 linker, then VL. The light chain is unchanged in all variants.
VH: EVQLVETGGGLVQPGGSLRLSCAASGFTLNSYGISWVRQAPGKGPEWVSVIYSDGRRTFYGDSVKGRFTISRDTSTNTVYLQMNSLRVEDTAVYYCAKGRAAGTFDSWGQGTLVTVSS
VL: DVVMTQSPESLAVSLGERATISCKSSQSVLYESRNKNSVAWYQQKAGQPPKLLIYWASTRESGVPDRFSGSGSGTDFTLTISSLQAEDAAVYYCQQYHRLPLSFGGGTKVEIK

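The starting antibody came from a phage panning campaign against this peptide. These sequences belong to a second round, designed from the earlier measurements on random variants of the parent. Their group label is 14H_En_Gen (En: ensemble of fine-tuned language models; Gen: genetic algorithm). Affinity was read by AlphaSeq, a pooled yeast mating assay with surface-displayed partners. Pairs that bind mate more often; barcode pairs of the diploids are counted by sequencing. Each replicate has its own calibration line, from reference interactions of the BCL2 family. Each pool was mated in six replicate cultures.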

Variants are written as CDR1, CDR2 and CDR3 of the heavy chain (limits as in the source). Parent: GFTLNSYGIS, VIYSDGRRTFYGDSVK, GRAAGTFDS. Affinities are written as log10 Kd with Kd in nM; a lower number is a better binder. An entry "ND" has no value in the source: the pair was not observed among the diploids in that replicate. This suggests poor binding but is not conclusive. The authors' rule: three or more of the six replicates give a measured affinity, fewer mean a poor binder. The parent sequence was in this pool as ten entries: three were never detected, three once, and four in most replicates, with averages from 0.34 to 2.37. As a blank, each scFv also met three strains without target: over all heavy chain designs, 1% of these pairings were detected, typically at 2.08 and seldom below 0.84. The control count says in how many pairings with the empty strains this scFv gave a signal, with their mean in brackets. A sequence measured in both rounds can read differently, since the two assays cover different ranges.

CDR-H1	CDR-H2	CDR-H3	log10 Kd, replicates	signal with controls
GFDLNEYGIS	VIYADGRRTAYTDSVK	GENAGTFDL	-0.24 -0.44 -0.36 -0.59 -0.36 -0.13	0/18
GFDLDEYGIS	VIYADGRRTAYTDSVK	GNEAGTFDV	-0.57 -0.41 -0.55 -0.86 -0.54 -0.38	0/18
GFDLDEYGIS	VIYADGMRTAYADSVK	GENAGTFVI	ND ND ND ND ND ND	1/18 (1.76)
GFDLNEYGIS	VIYADGQRKAYADSVK	GNVAGTFDI	-0.36 -0.30 -0.58 -0.60 -0.59 -0.10	0/18
GFDLNEYGIS	VIYADGMRTAYSDSVK	GEEAGTFDV	-0.11 -1.03 -1.20 -1.01 -0.89 -0.50	0/18
GFDLNEYGIS	VIYADGVRTAYVDSVK	GNEAGTFDV	-0.13 0.07 -0.53 -0.16 -0.22 -0.26	0/18
GFNLDEYGIS	VIYADGMRTAYSDSVK	GNVAGTFDL	-0.26 -0.19 -0.14 -0.32 -0.25 -0.30	1/18 (3.51)
GFDLEDYGIS	VIYADGMRTAYADSVK	GNVAGTFDQ	-1.36 -1.16 -0.87 -0.82 -0.82 -1.43	0/18
GFDLNEYGIS	VIYADGLRTAYADSVK	GNVAGTFDI	0.26 -0.73 -0.25 -0.34 -0.32 0.03	0/18
GFDLNEYGIS	VIYADGKRTAYANSVK	GEVAGTFDT	-0.25 -0.20 -0.18 -0.23 -0.32 -0.12	0/18
GFDLNEYGIS	VIYADGMRTAYADSVK	GEIAGTFDI	-0.87 -1.05 -0.91 -0.93 -1.44 -0.74	1/18 (0.37)
GFDLNEYGIS	VIYADGRRTAYADDVK	GNNAGTFDQ	-0.65 -0.02 -0.69 -0.73 -0.66 0.13	0/18
GFDLDEYGIS	VIYADGMRTAYADSVK	GNHAGTFDV	ND -1.05 -0.97 -0.53 -1.24 -0.05	0/18
GFDLNEYGIS	VIYADGMRTSYADDVK	GNVAGTFDI	-0.25 -0.13 -0.29 -0.28 -0.60 -0.23	1/18 (1.93)
GFDLNEYGIS	VIYADGQRTAYADSVK	GQNAGTFDM	-1.09 -0.89 -0.94 -0.41 -0.93 -0.78	0/18
GFDLDEYGIS	VIYADGKRTAYSDSVK	GNQAGTFDL	-0.30 -0.26 -0.35 -0.69 -0.60 -0.10	0/18
GFDLDEYGIS	VIYADGKRTAYANSVK	GNVAGTFDV	-0.36 -0.62 -0.35 -0.39 -0.09 -0.40	0/18
GFDLDEYGIS	VIYADGMRTAYSDSVK	GEVAGTFDM	-0.20 -0.32 -0.52 -0.76 -0.35 -0.26	0/18
GFDLNEYGIS	VIYADGMRTAYADSVK	GSNAGTFDQ	-0.25 -0.48 -0.43 -0.58 -0.44 -0.40	0/18
GFDLNEYGIS	VIYADGMRTAYSDSVK	GETAGTFDT	-0.31 -0.37 -0.34 -0.51 -0.08 -0.40	0/18
GFDLDEYGIS	VIYADGKRTAYSDSVK	GSNAGTFDV	-0.36 -0.73 -0.46 -0.68 -0.58 -0.30	0/18
GFDLNEYGIS	VIYADGSRTVYADSVK	GNVAGTFDL	-0.12 -0.27 -0.76 -0.48 -0.68 -0.20	0/18
GFDLNEYGIS	VIYADGKRTAYTDSVK	GNVAGTFDM	0.48 0.00 -0.22 -0.20 0.18 -0.05	2/18 (2.24)
GFDLDEYGIS	VIYADGMRTAYADNVK	GQTAGTFDV	-0.34 -0.31 -0.53 -0.78 -0.64 -0.51	0/18
GFDLNEYGIS	VIYADGVRTAYADSVK	GNLAGTFDV	-0.57 -0.02 -1.11 -1.11 -0.71 -0.60	0/18
GFDLDEYGIS	VIYADGKRTAYTDSVK	GNQAGTFDL	0.03 -0.29 -0.32 -0.47 -0.58 -0.67	0/18
GFDLNEYGIS	VIYADGQRTAYADSVK	GENAGTFDI	0.03 -0.16 -0.19 -0.28 -0.16 0.16	0/18
GFDLNEYGIS	VIYADGQRTAYVDSVK	GENAGTFDI	0.01 -0.30 -0.31 -0.30 -0.46 -0.06	0/18
GFDLNEYGIS	VIYADGQRTAYSDSVK	GENAGTFDL	0.07 0.80 -0.32 -0.26 -0.34 -0.31	0/18
GFDLNEYGIS	VIYADGVRSYYADSVK	GNVAGTFDV	-0.27 -0.56 -0.43 -0.43 -0.62 -0.33	1/18 (1.87)

Excerpt, the first 4 entries:

{"CDR-H1": "GFDLNEYGIS", "CDR-H2": "VIYADGRRTAYTDSVK", "CDR-H3": "GENAGTFDL", "log10 Kd, replicates": "-0.24 -0.44 -0.36 -0.59 -0.36 -0.13", "signal with controls": "0/18"}
{"CDR-H1": "GFDLDEYGIS", "CDR-H2": "VIYADGRRTAYTDSVK", "CDR-H3": "GNEAGTFDV", "log10 Kd, replicates": "-0.57 -0.41 -0.55 -0.86 -0.54 -0.38", "signal with controls": "0/18"}
{"CDR-H1": "GFDLDEYGIS", "CDR-H2": "VIYADGMRTAYADSVK", "CDR-H3": "GENAGTFVI", "log10 Kd, replicates": "ND ND ND ND ND ND", "signal with controls": "1/18 (1.76)"}
{"CDR-H1": "GFDLNEYGIS", "CDR-H2": "VIYADGQRKAYADSVK", "CDR-H3": "GNVAGTFDI", "log10 Kd, replicates": "-0.36 -0.30 -0.58 -0.60 -0.59 -0.10", "signal with controls": "0/18"}